# Measured values as given in PubChem BioAssay AID743397 (Broad Institute, 2014).
# This is a selection; strong and weak results do not stand in their true shares. Some results for these compounds are left out of this collection, so the calls shown say nothing about other tests. Active and inactive are the calls of the source.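 The calls were made as follows: active = mean replicate inhibition of at least 30% and at least 1% of replicates passing that level; inconclusive = only one of the two criteria is met; inactive = neither criterion is met.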
# System: Voltage-dependent L-type calcium channel subunit alpha-1D (CaV1.3) ICDI/IQ interaction
# Assay: Disruptors of the CACNA1D IQ motif to Ca2+-dependent inactivation inhibitor domain association, primary screening, Förster resonance energy transfer in intact living cells, one concentration (AID 743397);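 also: 0% = median of the neutral control wells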
# Conditions: HEK cells, CFP/YFP FRET ICDI-IQ, plate reader, 10 min; at 12.3 µM; hits give high values; percent FRET-ratio fall versus neutral wells
row,SMILES,inhibition
1,COc1ccc(Br)c(C(=O)NCC2(N3CCCCC3)CCCCC2)c1,inactive: 2.73%
2,C=C(C)C#CC(O)(C(=O)OC1CCN(C)CC1)c1ccccc1 (centres undefined),inactive: -5.68%
3,CN(C)c1cccc(C(=O)NCC2(N(C)C)CCCCC2)c1,inactive: 0.151%
4,CC(C)Oc1ccc(C(=O)NCC2(N(C)C)CCCCC2)cc1,inactive: -3.8%
5,O=C(OCCN1CCCC1)C(O)(c1ccccc1)c1ccccc1,inactive: -7.56%
6,COc1cccc(C(=O)NCC2(N3CCCCC3)CCCCC2)c1,inactive: -3.54%
7,COc1ccc(Cl)cc1C(=O)NCC1(N(C)C)CCCCC1,inactive: -3.85%
8,O=C(NCC1(N2CCCCC2)CCCCC1)c1cccc(Cl)c1,inactive: -3.43%
9,CN(C)C1(CNC(=O)c2ccc(Br)cc2)CCCCC1,inactive: -19.2%
10,COc1cc(C(=O)NCC2(N(C)C)CCCCC2)c([N+](=O)[O-])cc1OC,inactive: -13.2%
11,C=CCN1CCN(CCOC(=O)C(O)(c2ccccc2)c2ccccc2)CC1,inactive: -6.65%
12,O=C(NCC1(N2CCCCC2)CCCCC1)c1cc(F)c(F)cc1Cl,inactive: -6.82%
13,Cc1cc(C(=O)NCC2(N3CCCCC3)CCCCC2)ccc1[N+](=O)[O-],inactive: -2.18%
14,CCN1CCCC(OC(=O)C2(O)c3ccccc3C=Cc3ccccc32)C1 (centres undefined),inactive: -4.14%
15,O=C(NCC1(N2CCCCC2)CCCCC1)c1cccc(Br)c1,inactive: -4.76%
16,COc1ccc(C(=O)NCC2(N(C)C)CCCCC2)cc1,inactive: -19.3%
17,Cc1ccccc1C(=O)NCC1(N2CCCCC2)CCCCC1,inactive: -3.94%
18,CN(C)C1CCCC1OC(=O)C(O)(c1ccccc1)c1ccccc1 (centres undefined),inactive: -3.09%
19,CN(C)c1ccc(C(=O)NCC2(N(C)C)CCCCC2)cc1,inactive: -2.19%
20,CCN(CC)CC(C)C(C)OC(=O)C(O)(c1ccccc1)c1ccccc1 (centres undefined),inactive: -6.21%
21,COc1cc(SC)ccc1C(=O)NCC1(N(C)C)CCCCC1,inactive: -17.3%
22,Cc1ccc(C(=O)NCC2(N3CCCCC3)CCCCC2)cc1,inactive: -3.91%
23,O=C(NCC1(N2CCCCC2)CCCCC1)c1cc([N+](=O)[O-])ccc1Cl,inactive: -2.38%
24,CN1[C@@H]2CC[C@H]1CC(OC(=O)C(O)(c1ccccc1)c1ccccc1)C2 (some centres undefined),inactive: -5.1%
